Measured affinities in a library of Ab-91 heavy chain variants

Values reported by Engelhart et al. 2022, doi:10.1038/s41597-022-01779-4 (FLAb copy).

The target is the same throughout: PDVDLGDISGINAS, from the HR2 region of SARS-CoV-2 spike.

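The parent was found by panning a naive human phage display library on the peptide. AAYL51 was designed without a model: most single CDR substitutions and a random sample of double and triple ones. AlphaSeq pools MATa yeast showing the antibodies with MATalpha yeast showing the peptide. The frequency of each diploid, read from paired DNA barcodes, reflects how well the two displayed proteins bind. A regression on co-assayed BCL2-family reference pairs converts the normalised counts of each replicate to an apparent Kd. Mating was done three times.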

Each scFv is VL, the linker GGGGSGGGGSGGGGS, VH, as in the parent Ab-91, and differs from it in the CDRs of the heavy chain only.
VL: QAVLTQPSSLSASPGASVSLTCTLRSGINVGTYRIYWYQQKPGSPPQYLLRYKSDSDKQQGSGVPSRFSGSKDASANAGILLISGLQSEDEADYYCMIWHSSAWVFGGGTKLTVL
VH: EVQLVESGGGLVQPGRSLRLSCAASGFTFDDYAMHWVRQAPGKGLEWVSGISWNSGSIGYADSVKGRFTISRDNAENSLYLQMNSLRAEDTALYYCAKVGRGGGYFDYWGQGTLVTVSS

Changes read parent residue, position, new residue, counted from the first residue of the VH shown.
Numbers give log10(Kd / nM), so 0 is 1 nM and 3 is 1 µM. Smaller is tighter.
A mean of the replicates is given; it leaves out those without a signal.
A pair that was not seen in that replicate is written "ND"; this usually means weak binding, but a binder can also be missed.
As a blank, each scFv also met three strains without target: over library AAYL51, 21% of these pairings were detected, typically at 4.54 and seldom below 3.26. For each scFv, signals with the empty controls are counted beside the result, with their mean in brackets.

{"changes": "S55F G56M I58W", "replicates, log10 nM": "ND ND ND", "log10 Kd (nM), mean": "ND", "control signals": "0/9"}
{"changes": "F29I I51Y R101W", "replicates, log10 nM": "ND ND ND", "log10 Kd (nM), mean": "ND", "control signals": "0/9"}
{"changes": "W53D S55F G104L", "replicates, log10 nM": "4.32 ND 4.34", "log10 Kd (nM), mean": "4.33", "control signals": "4/9 (4.35)"}
{"changes": "W53T V64D", "replicates, log10 nM": "4.50 ND ND", "log10 Kd (nM), mean": "4.50", "control signals": "1/9 (4.66)"}
{"changes": "G26I F29G G104S", "replicates, log10 nM": "ND ND ND", "log10 Kd (nM), mean": "ND", "control signals": "1/9 (5.09)"}
{"changes": "F27Y I51A S57Y", "replicates, log10 nM": "ND ND 5.20", "log10 Kd (nM), mean": "5.20", "control signals": "4/9 (4.74)"}
{"changes": "T28D I51M A61K", "replicates, log10 nM": "ND ND ND", "log10 Kd (nM), mean": "ND", "control signals": "2/9 (3.15)"}
{"changes": "A33L S55V R101F", "replicates, log10 nM": "4.07 4.75 4.84", "log10 Kd (nM), mean": "4.55", "control signals": "7/9 (4.77)"}
{"changes": "T28N A33P I58Q", "replicates, log10 nM": "1.68 1.51 1.07", "log10 Kd (nM), mean": "1.42", "control signals": "0/9"}
{"changes": "M34E Y60K Y108D", "replicates, log10 nM": "ND ND ND", "log10 Kd (nM), mean": "ND", "control signals": "1/9 (2.99)"}
{"changes": "I51S G104S D107W", "replicates, log10 nM": "ND ND ND", "log10 Kd (nM), mean": "ND", "control signals": "2/9 (4.76)"}
{"changes": "A33Q S57C Y105H", "replicates, log10 nM": "5.52 4.46 5.98", "log10 Kd (nM), mean": "5.32", "control signals": "6/9 (5.51)"}
{"changes": "F27E N54V D62W", "replicates, log10 nM": "ND 5.96 ND", "log10 Kd (nM), mean": "5.96", "control signals": "1/9 (3.80)"}
{"changes": "I58H G104V Y105K", "replicates, log10 nM": "ND 3.83 ND", "log10 Kd (nM), mean": "3.83", "control signals": "1/9 (3.07)"}
{"changes": "G26M F27Y M34N", "replicates, log10 nM": "ND ND 2.88", "log10 Kd (nM), mean": "2.88", "control signals": "1/9 (4.57)"}
{"changes": "G50Y G59P D62V", "replicates, log10 nM": "4.05 4.58 ND", "log10 Kd (nM), mean": "4.31", "control signals": "3/9 (4.58)"}
{"changes": "W53V S57H Y105A", "replicates, log10 nM": "3.39 3.28 3.50", "log10 Kd (nM), mean": "3.39", "control signals": "6/9 (4.65)"}
{"changes": "D31I I51D D62A", "replicates, log10 nM": "ND ND ND", "log10 Kd (nM), mean": "ND", "control signals": "1/9 (3.78)"}
{"changes": "G26E T28P G59M", "replicates, log10 nM": "ND ND ND", "log10 Kd (nM), mean": "ND", "control signals": "1/9 (4.04)"}
{"changes": "D30W H35E I51G", "replicates, log10 nM": "ND ND ND", "log10 Kd (nM), mean": "ND", "control signals": "0/9"}
{"changes": "F27G G59D V99M", "replicates, log10 nM": "4.52 4.85 ND", "log10 Kd (nM), mean": "4.68", "control signals": "4/9 (5.11)"}
{"changes": "F29P A33F G103Q", "replicates, log10 nM": "ND ND ND", "log10 Kd (nM), mean": "ND", "control signals": "2/9 (4.50)"}
{"changes": "D31F A61S Y108F", "replicates, log10 nM": "1.72 1.76 1.45", "log10 Kd (nM), mean": "1.64", "control signals": "1/9 (5.26)"}
{"changes": "Y60N D62F K65I", "replicates, log10 nM": "ND ND ND", "log10 Kd (nM), mean": "ND", "control signals": "2/9 (4.37)"}
{"changes": "F29Q D30W Y105H", "replicates, log10 nM": "4.63 ND 4.92", "log10 Kd (nM), mean": "4.77", "control signals": "3/9 (4.67)"}
{"changes": "G26C H35Q R101P", "replicates, log10 nM": "ND ND ND", "log10 Kd (nM), mean": "ND", "control signals": "5/9 (4.69)"}
{"changes": "T28V Y32P Y60C", "replicates, log10 nM": "ND ND ND", "log10 Kd (nM), mean": "ND", "control signals": "1/9 (4.51)"}
{"changes": "S52L W53P I58C", "replicates, log10 nM": "ND ND ND", "log10 Kd (nM), mean": "ND", "control signals": "1/9 (2.58)"}

Parent in this assay: reference entry 1.86, copy in this library 0.88.